Antibody variant affinities, Ab-14 heavy chain, assay 1

Source: Engelhart et al. 2022 (doi:10.1038/s41597-022-01779-4), MIT Lincoln Laboratory and A-Alpha Bio; data file from the FLAb repository.

The target is the same throughout: PDVDLGDISGINAS, from the HR2 region of SARS-CoV-2 spike.

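In library AAYL49, one, two or three CDR residues were substituted; doubles and triples were drawn at random. AlphaSeq pools MATa yeast showing the antibodies with MATalpha yeast showing the peptide. After mating in shaken culture at 30 °C for 16 h, diploids were selected and their barcode pairs sequenced. The ratio of observed to expected reads was calibrated, replicate by replicate, on BCL2-family standards whose Kd was known from biolayer interferometry. There are three technical replicates.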

Each scFv is VH, a 15-residue (Gly4Ser)3 linker, VL, as in the parent Ab-14, and differs from it in the CDRs of the heavy chain only.
VH: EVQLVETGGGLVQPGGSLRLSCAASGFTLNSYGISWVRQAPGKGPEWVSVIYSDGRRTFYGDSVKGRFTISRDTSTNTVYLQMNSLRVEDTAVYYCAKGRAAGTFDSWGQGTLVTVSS
VL: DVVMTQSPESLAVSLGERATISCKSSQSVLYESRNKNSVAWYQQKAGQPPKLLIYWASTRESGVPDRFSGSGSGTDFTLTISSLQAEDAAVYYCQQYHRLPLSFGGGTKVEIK

Substitutions are numbered in sequence along the VH above, starting at 1 (not Kabat).
Affinities are written as log10 Kd with Kd in nM; a lower number is a better binder.
"ND" means that the variant was in the library but no mating with the target was seen in that replicate; the authors take this as a sign of poor binding, and no number exists.
As a blank, each scFv also met three strains without target: over library AAYL49, 15% of these pairings were detected, typically at 4.06 and seldom below 2.83.
For reference, the parent read 0.65 as the reference entry and 4.11 (one replicate of three) as a member of this library.

changes | log10 Kd, replicates
Y32T G55E | ND / 3.96 / ND
S63C F105Q | 0.91 / 2.08 / 1.79
N30S A102Q D106M | 0.88 / 1.16 / 0.98
Y32G S35F R56N | 3.61 / ND / ND
T28G G33S | ND / 3.67 / ND
D54P F59W D62A | ND / ND / 4.19
L29A D54I G99H | 3.46 / ND / ND
L29F Y32T I34D | ND / ND / ND
I34T G55E A101T | ND / ND / 4.67
V50F F59C F105A | ND / ND / ND
F59G T104A D106Y | 1.38 / 1.47 / 1.48
G26D L29E K65M | ND / ND / ND
L29W G33K G99A | ND / ND / ND
V50R I51V D62M | ND / ND / ND
F27V Y60R D106L | ND / ND / ND
T104E S107R | ND / ND / ND
D54V T58I F59P | 4.51 / 5.23 / 4.43

Continued, with the values leading:

log10 Kd, replicates | changes
ND / ND / ND | K65R G99E
ND / ND / ND | S31P D54A G103A
3.90 / ND / ND | N30D Y52N T58F
4.32 / ND / 4.58 | V50S D106N
ND / ND / ND | N30V G103S
4.06 / ND / ND | F59Y K65P F105S
5.65 / ND / ND | R57A T58G F105R
1.82 / 2.00 / 1.89 | T28V G103H S107Q
ND / ND / ND | T28W D54E S107W
0.39 / 0.80 / 1.10 | F59Y A102K
ND / 5.09 / ND | Y52W Y60N
ND / ND / ND | L29D S53T K65T
ND / ND / ND | Y52Q G99Q A101K
2.97 / ND / 1.89 | G61K V64Y A101N
ND / ND / ND | N30F G103Y S107V
ND / ND / ND | S35D D54H T58S
ND / ND / ND | S35V I51L S107A
ND / ND / ND | S35F D54N V64G

Extract of 5 entries:

changes | log10 Kd, replicates
F27V Y60R D106L | ND / ND / ND
F59Y K65P F105S | 4.06 / ND / ND
S35V I51L S107A | ND / ND / ND
T104E S107R | ND / ND / ND
N30S A102Q D106M | 0.88 / 1.16 / 0.98